Assays:
[1] = system: SH-SY5Y; experiment: Cytotoxicity against undifferentiated human SH-SY5Y cells; format: toxicity, cell-based
[2] = system: SH-SY5Y; experiment: Cytotoxicity against human SH-SY5Y cells assessed as reduction in cell viability at high concentrations by MTT assay; format: toxicity, cell-based
[3] = Toxicity in wild type Caenorhabditis elegans N2 assessed as effect on worm growth at 0.1 to 100 uM in presence of Escherichia coli OP50 measured daily for 6 days by visual inspection; conditions: dose 0.1-100 µM, time 6 day
[4] = Toxicity in wild type Caenorhabditis elegans N2 at 0.1 to 100 uM in presence of Escherichia coli OP50 measured daily for 6 days by food clearance assay; conditions: dose 0.1-100 µM, time 6 day
[5] = system: SH-SY5Y; experiment: Cytotoxicity against human SH-SY5Y cells assessed as reduction in cell viability at 0.5 uM by MTT assay; format: toxicity, cell-based

Row | Compound | Activity [1] | Activity [2] | Activity [3] | Activity [4] | Activity [5]
1 | CCCNNC(=O)c1ccc(S(=O)(=O)n2ccc3cc(OCCCN4CCCCC4)ccc32)cc1 | Toxic |  |  |  | 
2 | CCCNNC(=O)c1ccc(S(=O)(=O)n2ccc3cc(OC)ccc32)cc1 | Toxic |  |  |  | 
3 | O=C(NO)c1ccc(S(=O)(=O)n2ccc3cc(OCCCN4CCCCC4)ccc32)cc1 |  | Toxic | Non-Toxic | Non-Toxic | Non-Toxic
